Permeability data for macrocyclic peptides

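Lipid, pH, incubation time, direction and concentration are not recorded in the data file. Other peptides of the study may be missing here. Peptides that the database sets to -10, its floor, are left out.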

PAMPA is the parallel artificial membrane permeability assay, which has no cells and reads passive diffusion. Values are log10 P with P in cm/s, so -5 is more permeable than -7.

{"smiles": "CC(C)C[C@@H]1NC(=O)[C@@H](C)N(C)C(=O)[C@H](Cc2ccccc2)NC(=O)[C@H](CC(C)C)NC(=O)[C@H]2CCCN2C(=O)[C@H](CC(C)C)NC1=O", "PAMPA (log10 cm/s)": "-7.20"}
{"smiles": "CC(C)C[C@@H]1C(=O)N[C@@H](Cc2ccccc2)C(=O)N[C@H](C)C(=O)N[C@H](CC(C)C)C(=O)N(Cc2ccccc2)CC(=O)N2CCC[C@H]2C(=O)N1C", "PAMPA (log10 cm/s)": "-6.34"}
{"smiles": "CC(C)C[C@@H]1NC(=O)[C@H](C)NC(=O)[C@@H]2CCCN2C(=O)[C@H](Cc2ccccc2)NC(=O)[C@H](CC(C)C)N(C)C(=O)[C@@H]2CCCN2C(=O)[C@@H](CC(C)C)N(C)C1=O", "PAMPA (log10 cm/s)": "-6.74"}
{"smiles": "CC(C)C[C@@H]1C(=O)N(C)[C@@H](CC(C)C)C(=O)N2CCC[C@@H]2C(=O)N[C@H](CC(C)C)C(=O)N[C@@H](Cc2ccccc2)C(=O)N(C)[C@@H](C)C(=O)N1C", "PAMPA (log10 cm/s)": "-5.37"}
{"smiles": "CCCN1CC(=O)N(C)[C@@H](CC(C)C)C(=O)N(Cc2ccccc2)CC(=O)N2CCC[C@@H]2C(=O)N[C@@H](CC(C)C)C(=O)N[C@@H](Cc2ccccc2)C(=O)N2CCC[C@H]2C1=O", "PAMPA (log10 cm/s)": "-6.46"}
{"smiles": "CC(C)C[C@H]1NC(=O)[C@H](CC(C)C)N(C)C(=O)[C@@H](C)NC(=O)[C@H](Cc2ccccc2)NC(=O)[C@H](CC(C)C)N(C)C(=O)[C@H]2CCCN2C1=O", "PAMPA (log10 cm/s)": "-5.23"}
{"smiles": "CC(C)C[C@@H]1NC(=O)[C@H]2CCCN2C(=O)[C@H](CC(C)C)N(C)C(=O)[C@H](CC(C)C)NC(=O)C[C@H](Cc2ccccc2)NC(=O)[C@H]2CCCN2C(=O)[C@H](Cc2ccccc2)NC1=O", "PAMPA (log10 cm/s)": "-5.86"}
{"smiles": "CC(C)C[C@@H]1C(=O)N(C)[C@@H](CC(C)C)C(=O)N2CCC[C@H]2C(=O)N(C)[C@H](CC(C)C)C(=O)N[C@@H](Cc2ccccc2)C(=O)N[C@@H](C)C(=O)N1C", "PAMPA (log10 cm/s)": "-4.88"}
{"smiles": "CC(C)C[C@@H]1NC(=O)[C@@H]2CCCN2C(=O)[C@@H](CC(C)C)N(C)C(=O)[C@H](CC(C)C)N(C)C(=O)[C@@H](C)N(C)C(=O)[C@H]2CCCN2C(=O)[C@H](Cc2ccccc2)NC1=O", "PAMPA (log10 cm/s)": "-6.08"}
{"smiles": "CC(C)C[C@@H]1NC(=O)[C@@H]2CCCN2C(=O)[C@H](CC(C)C)N(C)C(=O)[C@@H](CC(C)C)NC(=O)C[C@H](Cc2ccccc2)NC(=O)[C@H](Cc2ccccc2)NC1=O", "PAMPA (log10 cm/s)": "-5.41"}
{"smiles": "CC(C)C[C@@H]1C(=O)N(C)[C@H](CC(C)C)C(=O)N2CCC[C@H]2C(=O)N(C)[C@H](CC(C)C)C(=O)N[C@@H](Cc2ccccc2)C(=O)N[C@@H](C)C(=O)N1C", "PAMPA (log10 cm/s)": "-5.22"}
{"smiles": "CC(C)C[C@H]1NC(=O)CN(Cc2ccccc2)C(=O)[C@@H](C)N(C)C(=O)[C@@H]2CCCN2C(=O)[C@H](Cc2ccccc2)NC(=O)[C@H](CC(C)C)N(C)C(=O)[C@@H]2CCCN2C1=O", "PAMPA (log10 cm/s)": "-5.20"}

Again, the 2 entries with the lowest PAMPA:

{"smiles": "CC(C)C[C@@H]1NC(=O)[C@@H](C)N(C)C(=O)[C@H](Cc2ccccc2)NC(=O)[C@H](CC(C)C)NC(=O)[C@H]2CCCN2C(=O)[C@H](CC(C)C)NC1=O", "PAMPA (log10 cm/s)": "-7.20"}
{"smiles": "CC(C)C[C@@H]1NC(=O)[C@H](C)NC(=O)[C@@H]2CCCN2C(=O)[C@H](Cc2ccccc2)NC(=O)[C@H](CC(C)C)N(C)C(=O)[C@@H]2CCCN2C(=O)[C@@H](CC(C)C)N(C)C1=O", "PAMPA (log10 cm/s)": "-6.74"}

Source: CycPeptMPDB (Li et al. 2023), which took these values from Townsend et al. 2020, doi:10.26434/chemrxiv.13335941.v1.